{"source": "PubChem BioAssay AID652083", "about": "(The Scripps Research Institute Molecular Screening Center, 2013)", "assay_in_all_cases": "PubChem AID 652083", "key": {"[1]": {"molecular_target": "5-hydroxytryptamine receptor 1A (Homo sapiens) (UniProt P08908)", "settings": "CEREP radioligand binding panel, % inhibition at 10 uM, Serotonin 5-HT1a, stronger effect = higher value"}, "Histamine H1": {"test_system": "Histamine H1", "settings": "CEREP radioligand binding panel, % inhibition at 10 uM, stronger effect = higher value"}, "Serotonin 5-HT3": {"test_system": "Serotonin 5-HT3", "settings": "CEREP radioligand binding panel, % inhibition at 10 uM, stronger effect = higher value"}, "[2]": {"molecular_target": "Muscarinic acetylcholine receptor M3 (Homo sapiens) (UniProt P20309)", "settings": "CEREP radioligand binding panel, % inhibition at 10 uM, stronger effect = higher value"}, "CCR1": {"test_system": "CCR1", "settings": "CEREP radioligand binding panel, % inhibition at 10 uM, stronger effect = higher value"}, "[3]": {"test_system": "Vasoactive intestinal peptide receptor 1", "settings": "CEREP radioligand binding panel, % inhibition at 10 uM, stronger effect = higher value"}, "Melatonin receptor MT1": {"test_system": "Melatonin receptor MT1", "settings": "CEREP radioligand binding panel, % inhibition at 10 uM, stronger effect = higher value"}, "[4]": {"test_system": "Norepinephrine transporter", "settings": "CEREP radioligand binding panel, % inhibition at 10 uM, stronger effect = higher value"}, "[5]": {"molecular_target": "5-hydroxytryptamine receptor 2B (Homo sapiens) (UniProt P41595)", "settings": "CEREP radioligand binding panel, % inhibition at 10 uM, Serotonin 5-HT2B, stronger effect = higher value"}, "[6]": {"test_system": "Ca2+ channel (L, verapamil site) (phenylalkylamine)", "settings": "CEREP radioligand binding panel, % inhibition at 10 uM, stronger effect = higher value"}, "Bradykinin receptor 2": {"test_system": "Bradykinin receptor 2", "settings": "CEREP radioligand binding panel, % inhibition at 10 uM, stronger effect = higher value"}, "[7]": {"molecular_target": "5-hydroxytryptamine receptor 5A (Homo sapiens) (UniProt P47898)", "settings": "CEREP radioligand binding panel, % inhibition at 10 uM, Serotonin 5-HT5A, stronger effect = higher value"}, "[8]": {"molecular_target": "Neurotensin receptor type 1 (Homo sapiens) (UniProt P30989)", "settings": "CEREP radioligand binding panel, % inhibition at 10 uM, Neurotensin receptor 1, stronger effect = higher value"}, "[9]": {"molecular_target": "Muscarinic acetylcholine receptor M2 (Homo sapiens) (UniProt P08172)", "settings": "CEREP radioligand binding panel, % inhibition at 10 uM, stronger effect = higher value"}, "Tachykinin receptor NK2": {"test_system": "Tachykinin receptor NK2", "settings": "CEREP radioligand binding panel, % inhibition at 10 uM, stronger effect = higher value"}, "[10]": {"molecular_target": "Neuropeptide Y receptor type 1 (Homo sapiens) (UniProt P25929)", "settings": "CEREP radioligand binding panel, % inhibition at 10 uM, Neuropeptide receptor Y1, stronger effect = higher value"}, "Endothelin receptor A": {"test_system": "Endothelin receptor A", "settings": "CEREP radioligand binding panel, % inhibition at 10 uM, stronger effect = higher value"}, "Adenosine A1": {"test_system": "Adenosine A1", "settings": "CEREP radioligand binding panel, % inhibition at 10 uM, stronger effect = higher value"}, "Histamine H2": {"test_system": "Histamine H2", "settings": "CEREP radioligand binding panel, % inhibition at 10 uM, stronger effect = higher value"}, "Adenosine A3": {"test_system": "Adenosine A3", "settings": "CEREP radioligand binding panel, % inhibition at 10 uM, stronger effect = higher value"}, "NOP (ORL1)": {"test_system": "NOP (ORL1)", "settings": "CEREP radioligand binding panel, % inhibition at 10 uM, stronger effect = higher value"}, "[11]": {"molecular_target": "Muscarinic acetylcholine receptor M1 (Homo sapiens) (UniProt P11229)", "settings": "CEREP radioligand binding panel, % inhibition at 10 uM, stronger effect = higher value"}, "Dopamine D2S": {"test_system": "Dopamine D2S", "settings": "CEREP radioligand binding panel, % inhibition at 10 uM, stronger effect = higher value"}, "Serotonin 5-HT6": {"test_system": "Serotonin 5-HT6", "settings": "CEREP radioligand binding panel, % inhibition at 10 uM, stronger effect = higher value"}, "[12]": {"molecular_target": "Delta-type opioid receptor (Homo sapiens) (UniProt P41143)", "settings": "CEREP radioligand binding panel, % inhibition at 10 uM, delta 2 (DOP), stronger effect = higher value"}, "Serotonin 5-HT7": {"test_system": "Serotonin 5-HT7", "settings": "CEREP radioligand binding panel, % inhibition at 10 uM, stronger effect = higher value"}, "[13]": {"molecular_target": "Neuropeptide Y receptor type 2 (Homo sapiens) (UniProt P49146)", "settings": "CEREP radioligand binding panel, % inhibition at 10 uM, Neuropeptide receptor Y2, stronger effect = higher value"}, "[14]": {"test_system": "Cholecystokinin A receptor", "settings": "CEREP radioligand binding panel, % inhibition at 10 uM, stronger effect = higher value"}, "mu (MOP)": {"test_system": "mu (MOP)", "settings": "CEREP radioligand binding panel, % inhibition at 10 uM, stronger effect = higher value"}, "Serotonin 5-HT1b": {"test_system": "Serotonin 5-HT1b", "settings": "CEREP radioligand binding panel, % inhibition at 10 uM, stronger effect = higher value"}, "Serotonin 5-HT2A": {"test_system": "Serotonin 5-HT2A", "settings": "CEREP radioligand binding panel, % inhibition at 10 uM, stronger effect = higher value"}, "[15]": {"molecular_target": "Vasopressin V1a receptor (Homo sapiens) (UniProt P37288)", "settings": "CEREP radioligand binding panel, % inhibition at 10 uM, Arginine vasopressin receptor 1A, stronger effect = higher value"}, "[16]": {"molecular_target": "D(1A) dopamine receptor (Homo sapiens) (UniProt P21728)", "settings": "CEREP radioligand binding panel, % inhibition at 10 uM, Dopamine D1, stronger effect = higher value"}, "Adrenergic beta 1": {"test_system": "Adrenergic beta 1", "settings": "CEREP radioligand binding panel, % inhibition at 10 uM, stronger effect = higher value"}, "Angiotensin receptor 1": {"test_system": "Angiotensin receptor 1", "settings": "CEREP radioligand binding panel, % inhibition at 10 uM, stronger effect = higher value"}, "kappa (KOP)": {"test_system": "kappa (KOP)", "settings": "CEREP radioligand binding panel, % inhibition at 10 uM, stronger effect = higher value"}, "Galanin receptor 2": {"test_system": "Galanin receptor 2", "settings": "CEREP radioligand binding panel, % inhibition at 10 uM, stronger effect = higher value"}, "CXCR2 (IL-8B)": {"test_system": "CXCR2 (IL-8B)", "settings": "CEREP radioligand binding panel, % inhibition at 10 uM, stronger effect = higher value"}, "[17]": {"molecular_target": "Beta-2 adrenergic receptor (Homo sapiens) (UniProt P07550)", "settings": "CEREP radioligand binding panel, % inhibition at 10 uM, Adrenergic beta 2, stronger effect = higher value"}, "Cannabinoid CB1": {"test_system": "Cannabinoid CB1", "settings": "CEREP radioligand binding panel, % inhibition at 10 uM, stronger effect = higher value"}, "Adenosine A2A": {"test_system": "Adenosine A2A", "settings": "CEREP radioligand binding panel, % inhibition at 10 uM, stronger effect = higher value"}, "Tachykinin receptor NK3": {"test_system": "Tachykinin receptor NK3", "settings": "CEREP radioligand binding panel, % inhibition at 10 uM, stronger effect = higher value"}, "[18]": {"molecular_target": "Melanocortin receptor 4 (Homo sapiens) (UniProt P32245)", "settings": "CEREP radioligand binding panel, % inhibition at 10 uM, Melanocortin receptor MC4, stronger effect = higher value"}, "[19]": {"test_system": "Somatostatin sst (non-selective)", "settings": "CEREP radioligand binding panel, % inhibition at 10 uM, stronger effect = higher value"}}, "note": "Calls of active or inactive are those of the source.", "data": [{"smiles": "COC(=O)c1cc(Br)cnc1N1CCC(NC2CCCCC2)C(O)C1", "note": "(centres undefined)", "values": [{"measurement": "inhibition of specific binding", "setting": "[1]", "value": "inactive: 40%"}, {"measurement": "inhibition of specific binding", "setting": "Histamine H1", "value": "inactive: 3%"}, {"measurement": "inhibition of specific binding", "setting": "Serotonin 5-HT3", "value": "inactive: 1%"}, {"measurement": "inhibition of specific binding", "setting": "[2]", "value": "inactive: 11%"}, {"measurement": "inhibition of specific binding", "setting": "CCR1", "value": "inactive: 7%"}, {"measurement": "inhibition of specific binding", "setting": "[3]", "value": "inactive: 10%"}, {"measurement": "inhibition of specific binding", "setting": "Melatonin receptor MT1", "value": "inactive: -13%"}, {"measurement": "inhibition of specific binding", "setting": "[4]", "value": "inactive: 16%"}, {"measurement": "inhibition of specific binding", "setting": "[5]", "value": "inactive: 24%"}, {"measurement": "inhibition of specific binding", "setting": "[6]", "value": "inactive: 32%"}, {"measurement": "inhibition of specific binding", "setting": "Bradykinin receptor 2", "value": "inactive: -11%"}, {"measurement": "inhibition of specific binding", "setting": "[7]", "value": "inactive: 0%"}, {"measurement": "inhibition of specific binding", "setting": "[8]", "value": "inactive: -12%"}, {"measurement": "inhibition of specific binding", "setting": "[9]", "value": "inactive: -1%"}, {"measurement": "inhibition of specific binding", "setting": "Tachykinin receptor NK2", "value": "inactive: 2%"}, {"measurement": "inhibition of specific binding", "setting": "[10]", "value": "inactive: -11%"}, {"measurement": "inhibition of specific binding", "setting": "Endothelin receptor A", "value": "inactive: -7%"}, {"measurement": "inhibition of specific binding", "setting": "Adenosine A1", "value": "inactive: 3%"}, {"measurement": "inhibition of specific binding", "setting": "Histamine H2", "value": "inactive: -7%"}, {"measurement": "inhibition of specific binding", "setting": "Adenosine A3", "value": "inactive: -1%"}, {"measurement": "inhibition of specific binding", "setting": "NOP (ORL1)", "value": 71, "unit": "%"}, {"measurement": "inhibition of specific binding", "setting": "[11]", "value": "inactive: 5%"}, {"measurement": "inhibition of specific binding", "setting": "Dopamine D2S", "value": "inactive: 38%"}, {"measurement": "inhibition of specific binding", "setting": "Serotonin 5-HT6", "value": "inactive: 1%"}, {"measurement": "inhibition of specific binding", "setting": "[12]", "value": "inactive: 31%"}, {"measurement": "inhibition of specific binding", "setting": "Serotonin 5-HT7", "value": "inactive: -7%"}, {"measurement": "inhibition of specific binding", "setting": "[13]", "value": "inactive: -7%"}, {"measurement": "inhibition of specific binding", "setting": "[14]", "value": -54, "unit": "%"}, {"measurement": "inhibition of specific binding", "setting": "mu (MOP)", "value": 97, "unit": "%"}, {"measurement": "inhibition of specific binding", "setting": "Serotonin 5-HT1b", "value": "inactive: -11%"}, {"measurement": "inhibition of specific binding", "setting": "Serotonin 5-HT2A", "value": "inactive: -4%"}, {"measurement": "inhibition of specific binding", "setting": "[15]", "value": "inactive: 1%"}, {"measurement": "inhibition of specific binding", "setting": "[16]", "value": "inactive: 7%"}, {"measurement": "inhibition of specific binding", "setting": "Adrenergic beta 1", "value": "inactive: -1%"}, {"measurement": "inhibition of specific binding", "setting": "Angiotensin receptor 1", "value": "inactive: -2%"}, {"measurement": "inhibition of specific binding", "setting": "kappa (KOP)", "value": 84, "unit": "%"}, {"measurement": "inhibition of specific binding", "setting": "Galanin receptor 2", "value": "inactive: -13%"}, {"measurement": "inhibition of specific binding", "setting": "CXCR2 (IL-8B)", "value": "inactive: -3%"}, {"measurement": "inhibition of specific binding", "setting": "[17]", "value": "inactive: 43%"}, {"measurement": "inhibition of specific binding", "setting": "Cannabinoid CB1", "value": "inactive: 0%"}, {"measurement": "inhibition of specific binding", "setting": "Adenosine A2A", "value": "inactive: 19%"}, {"measurement": "inhibition of specific binding", "setting": "Tachykinin receptor NK3", "value": "inactive: 11%"}, {"measurement": "inhibition of specific binding", "setting": "[18]", "value": "inactive: -1%"}, {"measurement": "inhibition of specific binding", "setting": "[19]", "value": "inactive: -17%"}]}]}
